# CycPeptMPDB entries from one study

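Lipid, pH, incubation time, direction and concentration are not recorded in the data file. The list need not hold all peptides of the study. Entries at the database's floor value (log10 P of -10) are not listed.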

PAMPA measures passive passage through an artificial lipid membrane. Values are log10 P with P in cm/s, so -5 is more permeable than -7.

structure (SMILES),PAMPA (log10 cm/s)
CCCC[C@@H]1NC(=O)[C@H](CC(C)C)N(C)C(=O)CN(CC2CCCCC2)C(=O)[C@H](C)NC(=O)CN(CC(C)C)C(=O)[C@H]2CCCN2C1=O,-4.96
CCCC[C@@H]1NC(=O)[C@H](CC(C)C)N(C)C(=O)CN(CCCN2CCCC2=O)C(=O)[C@H](Cc2ccccc2)NC(=O)CN(CCN2CCOCC2)C(=O)[C@H]2CCCN2C1=O,-7.35
CCCC[C@@H]1NC(=O)[C@H](CC(C)C)N(C)C(=O)CN(CCCc2ccccc2)C(=O)[C@H](CC(C)C)NC(=O)CN(CC)C(=O)[C@H]2CCCN2C1=O,-5.11
CCCC[C@@H]1NC(=O)[C@H](CC(C)C)N(C)C(=O)CN(CCCN2CCCC2=O)C(=O)[C@H](Cc2ccc3ccccc3c2)NC(=O)CN(Cc2ccccc2Cn2cccn2)C(=O)[C@H]2CCCN2C1=O,-6.06
CCCC[C@@H]1NC(=O)[C@H](CC(C)C)N(C)C(=O)CN(CCOc2ccccc2)C(=O)[C@H](C)NC(=O)CN(Cc2ccccc2Cn2cccn2)C(=O)[C@H]2CCCN2C1=O,-5.38
CCCC[C@@H]1NC(=O)[C@H](CC(C)C)N(C)C(=O)CN(CCc2cccnc2)C(=O)[C@H](Cc2ccc3ccccc3c2)NC(=O)CN(CC)C(=O)[C@H]2CCCN2C1=O,-5.51
CCCC[C@@H]1NC(=O)[C@H](CC(C)C)N(C)C(=O)CN(Cc2ccccc2)C(=O)[C@H](Cc2ccccc2)NC(=O)CN(CCN2CCOCC2)C(=O)[C@H]2CCCN2C1=O,-5.42
CCCC[C@@H]1NC(=O)[C@H](CC(C)C)N(C)C(=O)CN(CCOC)C(=O)[C@H](Cc2ccccc2)NC(=O)CN(Cc2ccccc2Cn2cccn2)C(=O)[C@H]2CCCN2C1=O,-5.26
CCCC[C@@H]1NC(=O)[C@H](CC(C)C)N(C)C(=O)CN(Cc2ccccc2)C(=O)[C@H](Cc2ccccc2)NC(=O)CN(Cc2ccccc2Cn2cccn2)C(=O)[C@H]2CCCN2C1=O,-6.46
CCCC[C@@H]1NC(=O)[C@H](CC(C)C)N(C)C(=O)CN(CCc2cccnc2)C(=O)[C@H](Cc2ccccc2)NC(=O)CN(CC(C)C)C(=O)[C@H]2CCCN2C1=O,-5.35
CCCC[C@@H]1NC(=O)[C@H](CC(C)C)N(C)C(=O)CN(CCOC)C(=O)[C@H](Cc2ccccc2)NC(=O)CN(Cc2cc(CC(C)C)on2)C(=O)[C@H]2CCCN2C1=O,-5.38
CCCCCN1CC(=O)N(C)[C@@H](CC(C)C)C(=O)N[C@@H](CCCC)C(=O)N2CCC[C@@H]2C(=O)N(Cc2cc(CC(C)C)on2)CC(=O)N[C@@H](C)C1=O,-5.00
CCCC[C@@H]1NC(=O)[C@H](CC(C)C)N(C)C(=O)CN(CCc2cccnc2)C(=O)[C@H](Cc2ccc3ccccc3c2)NC(=O)CN(CCN2CCOCC2)C(=O)[C@H]2CCCN2C1=O,-6.02
CCCC[C@@H]1NC(=O)[C@H](CC(C)C)N(C)C(=O)CN(CCOC)C(=O)[C@H](Cc2ccc3ccccc3c2)NC(=O)CN(Cc2ccc(Cl)cc2)C(=O)[C@H]2CCCN2C1=O,-7.82
CCCC[C@@H]1NC(=O)[C@H](CC(C)C)N(C)C(=O)CN(Cc2ccccc2)C(=O)[C@H](Cc2ccc3ccccc3c2)NC(=O)CN(CCC)C(=O)[C@H]2CCCN2C1=O,-6.74
CCCC[C@@H]1NC(=O)[C@H](CC(C)C)N(C)C(=O)CN(CCc2cccnc2)C(=O)[C@H](C)NC(=O)CN(CC)C(=O)[C@H]2CCCN2C1=O,-7.40

Repeated from above, the 3 entries with the highest PAMPA:

| structure (SMILES) | PAMPA (log10 cm/s) |
|---|---|
| CCCC[C@@H]1NC(=O)[C@H](CC(C)C)N(C)C(=O)CN(CC2CCCCC2)C(=O)[C@H](C)NC(=O)CN(CC(C)C)C(=O)[C@H]2CCCN2C1=O | -4.96 |
| CCCCCN1CC(=O)N(C)[C@@H](CC(C)C)C(=O)N[C@@H](CCCC)C(=O)N2CCC[C@@H]2C(=O)N(Cc2cc(CC(C)C)on2)CC(=O)N[C@@H](C)C1=O | -5.00 |
| CCCC[C@@H]1NC(=O)[C@H](CC(C)C)N(C)C(=O)CN(CCCc2ccccc2)C(=O)[C@H](CC(C)C)NC(=O)CN(CC)C(=O)[C@H]2CCCN2C1=O | -5.11 |

Source: CycPeptMPDB (Li et al. 2023), which took these values from Furukawa et al. 2016, doi:10.1021/acs.jmedchem.6b01246.